Earlier results on one compound are cited in article PMC6152717, “Novel Tacrine-Scutellarin Hybrids as Multipotent Anti-Alzheimer’s Agents: Design, Synthesis and Biological Evaluation” (Molecules : A Journal of Synthetic Chemistry and Natural …, 2017).

The structures appear in SMILES notation.

This data set relates to AChE. The note with it: selectivity index for AChE over BChE; cited from earlier work.

As for `COc1cc2c(cc1OC)C(=O)C(CC1CCN(Cc3ccccc3)CC1)C2` (stereo not shown) [donepezil], the SI value is reported as 1100.
